The source of these data is ChEMBL document CHEMBL1142723, “Discovery of a potent, selective, and efficacious class of reversible alpha-ketoheterocycle inhibitors of fatty acid amide hydrolase effective as analgesics” (J Med Chem, 2005).

Amino acid sequences for entries named in this document (tags omitted).
UniProt P97612, whole entry: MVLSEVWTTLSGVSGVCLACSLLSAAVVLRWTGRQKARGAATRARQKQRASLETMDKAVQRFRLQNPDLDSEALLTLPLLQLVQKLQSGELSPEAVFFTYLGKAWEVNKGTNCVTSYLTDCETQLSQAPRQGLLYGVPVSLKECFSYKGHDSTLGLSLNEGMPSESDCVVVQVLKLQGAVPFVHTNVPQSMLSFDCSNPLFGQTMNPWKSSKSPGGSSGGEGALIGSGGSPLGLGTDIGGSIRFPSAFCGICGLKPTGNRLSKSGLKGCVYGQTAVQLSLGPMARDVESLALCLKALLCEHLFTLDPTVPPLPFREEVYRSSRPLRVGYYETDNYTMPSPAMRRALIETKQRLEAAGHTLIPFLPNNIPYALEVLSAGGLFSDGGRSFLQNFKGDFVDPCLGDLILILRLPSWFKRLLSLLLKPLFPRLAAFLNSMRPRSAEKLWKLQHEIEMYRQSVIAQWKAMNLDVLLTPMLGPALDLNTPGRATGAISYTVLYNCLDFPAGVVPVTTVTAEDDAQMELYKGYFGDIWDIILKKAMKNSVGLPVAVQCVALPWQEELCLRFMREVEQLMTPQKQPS

This assay deals with Fatty-acid amide hydrolase 1 (Rattus norvegicus, UniProt P97612). The assay is described as follows: Inhibitory constant determined against recombinant Fatty-acid amide hydrolase from rat expressed in Escherichia coli.

On to `O=C(CCCCCCc1ccccc1)c1ncc(-c2ccccc2)o1`, for which the Ki (usually the equilibrium dissociation constant of an inhibitor or competing ligand from its target) is 140 nM.
